This is a selection; strong and weak results do not stand in their true shares. Some tests of the compounds listed are not included; inactive here does not mean inactive elsewhere. The source made the active and inactive calls.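 How the source made its calls: active means activation above its plate's cutoff, the mean activation of test wells on that plate plus 3 SD (cut at about 19% in these data); inactive means the rest.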
Test system: transient receptor potential cation channel N1 (TRPN1/NompC), Danio rerio
Experiment: TRPN1 activation via calcium influx – cell-based, HEK293, calcium fluorescence, zebrafish, primary screen (AID 1424);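 further: 0% = DMSO alone and 100% = 87 µM carbachol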
Conditions: HEK293 zebrafish TRPN1-YFP, Fluo-8 calcium fluorescence; at 3 µM; stronger effect = higher value; 100% = response to 87 µM carbachol
Method in brief: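 Assay system: Zebrafish TRPN1-YFP in HEK293 cells | Incubation: Dye loading 1 h at 37 °C, then 30 min room temperature | Measured by: Kinetic Fluo-8 fluorescence, ex 470-495, em 515-575 nm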

SMILES | activation
CCN1CCCC(OC(=O)C2(O)c3ccccc3C=Cc3ccccc32)C1 (stereo unspecified) | inactive: -0.31%
C=CCN1CCN(CCOC(=O)C(O)(c2ccccc2)c2ccccc2)CC1 | inactive: 0.61%
CN(C)C1CCCC1OC(=O)C(O)(c1ccccc1)c1ccccc1 (stereo unspecified) | inactive: -0.58%
Cc1ccccc1C(=O)NCC1(N2CCCCC2)CCCCC1 | inactive: -0.35%
CC(C)N1C(=O)CC2(CCN(CCOC(=O)C(O)(c3ccccc3)c3ccccc3)CC2)C1=O | inactive: 0.24%
CCN(CC)CC(C)C(C)OC(=O)C(O)(c1ccccc1)c1ccccc1 (stereo unspecified) | inactive: -0.28%
O=C(NCC1(N2CCCCC2)CCCCC1)c1cc([N+](=O)[O-])ccc1Cl | inactive: 0.93%
CN(C)c1cccc(C(=O)NCC2(N(C)C)CCCCC2)c1 | inactive: 1.78%
COc1ccc(Br)c(C(=O)NCC2(N3CCCCC3)CCCCC2)c1 | inactive: 1.24%
O=C(OC1CN2CCC1CC2)C(CO)(c1ccccc1)c1ccccc1 (stereo unspecified) | inactive: 3.11%
COc1cccc(C(=O)NCC2(N3CCCCC3)CCCCC2)c1 | inactive: 0.71%
